Reported boiling point values for industrial, environmental and drug-like chemicals

Source: data files of OPERA 2.9 (Mansouri et al.), github.com/kmansouri/OPERA.

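The numbers are reported measurements, compiled and curated for the OPERA QSAR suite. The files give a single number for a compound and property, which may rest on several reports. Method and conditions are not stated for these values. A value may pool stereoisomers or salt forms, and the file does not say which form was measured. Unmarked limits or estimates from the upstream databases cannot be ruled out.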

The boiling point refers to atmospheric pressure (760 mmHg), by the definition of the set.
The databases behind each value are named after "via".

SMILES	BP (°C)	via
C1COCCNN1	174.5	eChemPortal
COC(C)COC(C)CO (stereo not given)	196.4	PubChem
C/C(=C\C1CCCCC1)CC(C)C=O (stereo partly drawn)	261.9	eChemPortal
CCC(=O)CC(C)(C)c1ccccc1	258.9	eChemPortal
C1CCC2C(C1)CC1CCCCC12 (stereo not given)	260	OCHEM
O=CCC(F)(F)C(F)(F)C(F)(F)C(F)(F)C(F)(F)C(F)(F)C(F)(F)C(F)(F)F	176	OCHEM
CC(=O)Nc1cc(S(=O)(=O)O)cc(N)c1O	390	eChemPortal
CC(C)(C=NCC1(C)CC(N=CC(C)(C)CN2CCOCC2)CC(C)(C)C1)CN1CCOCC1 (stereo not given)	288	eChemPortal
CCC(=O)OCC(C)(C)OC(C)C1CCCC(C)(C)C1 (stereo not given)	286	eChemPortal
CS(=O)(=O)c1ccc(F)c(C(=O)O)c1	322	eChemPortal
CCC[C@H]1CC[C@H](c2ccc(-c3ccc(-c4cc(F)c(OC(F)(F)F)c(F)c4)c(F)c3)cc2)CC1	468	eChemPortal
CC(=CC(C)C)C(C)O (stereo not given)	167	eChemPortal
O=C=Nc1ccc(Cl)c(Cl)c1	228	eChemPortal
C=C(C)C(=O)OCCC[Si](O[Si](C)(C)C)(O[Si](C)(C)C)O[Si](C)(C)C	292.7	eChemPortal
CCOP(=O)(Cc1cc(C(C)(C)C)c(O)c(C(C)(C)C)c1)OCC	317.8	eChemPortal
CNC(=O)N(c1ccccc1)c1ccccc1	292.8	eChemPortal
COCc1c(C)cccc1N	251.6	eChemPortal
C/C=C/C(=O)C1CCC(C)(C)C=C1C (stereo partly drawn)	251.3	eChemPortal
CC1(C)[C@@H]2CC[C@@]1(C)CC2=O	213	OCHEM
CCCn1c(=O)c(C)cn2nc(N)nc12	364	eChemPortal
CCCCCCC(O)CCCCCCCCCCCO (stereo not given)	372.4	eChemPortal
CCCCCCCCC(CCCCCC)C(=O)O (stereo not given)	331	eChemPortal
C[C@@H]1[C@@H](CN)C[C@H]2C[C@@H]1C2(C)C	232.5	eChemPortal
N#CC(F)(F)C(F)(F)C(F)(F)C(F)(F)C(F)(F)OC(F)=C(F)F	110	ChemicalBook
CC(C)(C)[C@H]1CCCC[C@H]1O (relative stereo)	213	eChemPortal
CCCCCCCOCC(C)CC=O (stereo not given)	238	eChemPortal
O=c1n(CCCS)c(=O)n(CCCS)c(=O)n1CCCS	360	eChemPortal
O=CC(F)(F)C(F)(F)C(F)(F)C(F)(F)C(F)(F)C(F)(F)C(F)(F)C(F)(F)F	126	ChemicalBook, OCHEM
CCCC1CC(C)(OC(C)=O)CCO1 (stereo not given)	238	OCHEM, eChemPortal
CCC(CC)CN	125	PubChem
O=C1NS(=O)(=O)c2ccccc21	285	OCHEM, eChemPortal
CCC1(O)CCCC1CCC(C)C (stereo not given)	235.2	eChemPortal
CCCC1CCC(C2CCC(C(F)(F)Oc3cc(F)c(F)c(F)c3)CC2)CC1 (stereo not given)	353.5	eChemPortal
O=S(=O)(O)CS(=O)(=O)O	263	eChemPortal
CC1(C)CC(=O)CC(C)(C#N)C1 (stereo not given)	279.9	eChemPortal
O=C(CCCCC(=O)N(CCO)CCO)N(CCO)CCO	499	eChemPortal
Cc1ccc(Nc2ccc(Nc3ccc(C)cc3)c3c2C(=O)c2ccccc2C3=O)cc1	489	eChemPortal
FC(c1ccccc1)C(F)(F)F (stereo not given)	128.5	ChemicalBook
CCOCCOC(=O)OCC	194	eChemPortal
O=S(=O)(Sc1ccccc1)c1ccc(Cl)cc1	118	OCHEM
CCOC(OCC)[SiH2]CN1CCOCC1	232.7	eChemPortal
CCCCC(CC)COC(=O)/C=C/c1ccc(OC)cc1 (stereo partly drawn)	382	eChemPortal
CC(C)C=NCC1CCCC(CN=CC(C)C)C1 (stereo not given)	232.4	eChemPortal
CCCCC[C@@H]1CCC[C@@H]1O (relative stereo)	222.3	eChemPortal
CC(C)CCC(C)C(C)O (stereo not given)	186	eChemPortal
Nc1ccc(F)cc1-c1ccc(Cl)c(Cl)c1	357	eChemPortal
CCCCCCCC[N+](C)(C)[O-]	380	eChemPortal
CCCCOC(=O)NC1CCC(CC2CCC(NC(=O)OCCCC)CC2)CC1 (stereo not given)	371.1	eChemPortal
CCCCCCCCCCCC1=NCCN1CCO	354	eChemPortal
CCCc1ccc(-c2ccc(OCC)c(F)c2F)cc1	349.8	eChemPortal
CCCCCCCCCCCCCCCCCCCCCCOC(=O)CCCCCCCCCCCCCCCCCCCCC	395	eChemPortal

Again, the 7 entries with the lowest BP:

SMILES	BP (°C)	via
N#CC(F)(F)C(F)(F)C(F)(F)C(F)(F)C(F)(F)OC(F)=C(F)F	110	ChemicalBook
O=S(=O)(Sc1ccccc1)c1ccc(Cl)cc1	118	OCHEM
CCC(CC)CN	125	PubChem
O=CC(F)(F)C(F)(F)C(F)(F)C(F)(F)C(F)(F)C(F)(F)C(F)(F)C(F)(F)F	126	ChemicalBook, OCHEM
FC(c1ccccc1)C(F)(F)F (stereo not given)	128.5	ChemicalBook
CC(=CC(C)C)C(C)O (stereo not given)	167	eChemPortal
C1COCCNN1	174.5	eChemPortal